Values quoted from earlier work as cited in patent publication US9402826B2, “Neuronal pain pathway modulators” (The Trustees of Columbia University in the City of New York, priority 2006, dated 2016).
Read-outs that look alike come from different tables or passages of the source.

Target: PKA (Homo sapiens, UniProt P17612)
Settings: cited from earlier work

Measured: IC50

O=C(NC1CCCC1OC(=O)c1cc(O)c(C(=O)c2c(O)cccc2C(=O)O)c(O)c1)c1ccc(O)cc1 (stereo not drawn) [reference compound]
30 nM: read-out: IC50 PKA from literature, Series B, Table 2 | read-out: PKA activity (IC50), Table 1, from Lai et al. 1997 | read-out: PKA inhibition (IC50), Table 3, same values given as from literature in Table 2
